System: human platelets
Assay: Tail bleeding assay, human platelet-induced hemostasis in homozygous VWF^1326R>H mice
Format: in vivo, mouse
Conditions: drug given to homozygous VWF^1326R>H mice receiving human platelets
Description: Tail bleeding assay. […] For studies involving PLAVIX, animals received a 50 mg/kg oral dose of the drug the day before and 2 hours prior to the administration of human platelets.
This assay provides an indirect measure of the ability of platelets and VWF to support hemostasis by interacting with the injured vessel wall. It also indirectly determines the function of multiple receptors and ligands on platelets that are required to form a hemostatic plug. […] It is performed by immersing the severed tip (10 mm) of the animal's tail in isotonic saline at 37° C. and monitoring the length of time required for bleeding to cease. Homozygous mutant mice will be infused with an equal volume of either saline or purified human platelets. Platelet specific antibodies or drugs will be administered as described above and their ability to prolong bleeding time evaluated.

## COC(=O)[C@H](c1ccccc1Cl)N1CCc2sccc2C1 [clopidogrel]
  human platelet-induced hemostatic clot formation: completely disrupted
Listed as Clopidogrel
  human platelet-induced hemostatic clot formation: unable to produce a hemostatic clot
